Laboratory results: publication PMC7871173 (Journal of medicinal chemistry, 2019)

Tested on: mouse chronic constrictive injury of the sciatic nerve (CCI) model of neuropathic pain
Conditions: 40 mg/kg i.p.

`N#Cc1ccc2c(C(CC(F)(F)F)c3cccs3)c(-c3ccccc3)[nH]c2c1` (racemic) [(±)-1, 2-Phenyl-3-(3,3,3-trifluoro-1-(thiophen-2-yl)propyl)-1H-indole-6-carbonitrile] was tested, and the “time of significant anti-allodynic effect post-administration” value was 0.5 h and the “time to maximal anti-allodynic effectiveness” value was ≤ 1 h.
